Measured values taken from article PMC6600871 (Nature chemical biology, 2019).

Experiment: Caco-2 permeability assay
Assay type: in vitro ADME
Details: human, Caco-2, pH 7.2

efflux ratio: 190
SMILES: Cc1ncsc1-c1ccc(CNC(=O)[C@@H]2C[C@@H](O)CN2C(=O)[C@@H](NC(=O)C2(F)CC2)C(C)(C)C)c(OCCOCCOCCN2CCN(c3cc(-c4ccccc4O)nnc3N)CC2)c1 [PROTAC 1, (2S,4R)-N-(2-(2-(2-(2-(4-(3-amino-6-(2-hydroxyphenyl)pyridazin-4-yl)piperazin-1-yl)ethoxy)ethoxy)ethoxy)-4-(4-methylthiazol-5-yl)benzyl)-1-((S)-2-(1-fluorocyclopropane-1-carboxamido)-3,3-dimethylbutanoyl)-4-hydroxypyrrolidine-2-carboxamide]
